The results in this text go back to PubChem BioAssay AID2025 (NMMLSC, 2009).

Structures are written as SMILES. The entries are a selection whose mix differs from that of the whole data set. Some structures show a salt or complex split into parts, the way the source records it. Calls of active or inactive are those of the source.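 How the source made its calls: active means percent response vs DMSO below 50%; inconclusive means fewer than 70 events counted for the yeast strain; inactive means the rest.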

The nature of this assay: RPL19A-GFP expression modulators in yeast, primary screen, cell-based, S. cerevisiae, multiplex flow cytometry, MLPCN (AID 2025).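 Further: median channel GFP fluorescence of the barcoded RPL19A-GFP strain; ratio of sample median GFP to plate DMSO average so 100% = DMSO; lower means less RPL19A-GFP as with rapamycin TOR inhibition.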 To be noted: S. cerevisiae RPL19A-GFP strain, 3 h, at 10 µM, stronger effect = lower value. Background: In flow cytometry, cells or beads pass a laser one at a time.
For the compound `COc1ccc(OP(C)(=O)Nc2ccccn2)cc1` (stereo not drawn), the percent response vs DMSO was inactive: 102%.
The result for `CN(C)CCOC(=O)C(O)(c1ccccc1)C1CCCC1` (stereo not drawn) reads inactive: 102%.
The result for `COc1ccccc1OP(C)(=O)Nc1ccc(Br)cc1` (stereo not drawn) reads inactive: 108%; that for `COc1ccccc1OP(C)(=O)Nc1ccc(C)cc1C` (stereo not drawn), inactive: 104%; that for `CP(=O)(Nc1ccccn1)Oc1ccccc1` (stereo not drawn), inactive: 108%.
As to `CCc1ccc(OP(C)(=O)O)cc1`, the percent response vs DMSO was inactive: 96.4%.
The result for `Cc1c(NP(C)(=O)Oc2ccc(C(C)C)cc2)c(=O)n(-c2ccccc2)n1C` (stereo not drawn) reads inactive: 101%; that for `O=[N+]([O-])c1cc([N+](=O)[O-])c(Nc2ccccn2)c([N+](=O)[O-])c1`, inactive: 92.8%.
The result for `COc1ccccc1OP(C)(=O)Nc1ccc(C)c(C)c1` (stereo not drawn) reads inactive: 90.5%; that for `COc1ccc(OP(C)(=O)Nc2ccccc2Br)cc1` (stereo not drawn), inactive: 101%; that for `Cc1cc(C)cc(OP(C)(=O)Nc2cccc(C(F)(F)F)c2)c1` (stereo not drawn), inactive: 96.5%.
For `CP(=O)(Nc1ccc(Cl)cc1Cl)Oc1ccccc1` (stereo not drawn), the percent response vs DMSO was inactive: 98.7%.
The result for `CP(=O)(OCCOc1ccccc1)OCCOc1ccccc1` reads inactive: 96.5%.
The result for `Cc1nc2ccc3ccccc3c2o1.O=[N+]([O-])c1cc([N+](=O)[O-])c(O)c([N+](=O)[O-])c1` reads inactive: 100%; that for `CCOC(=O)c1ccc(NP(C)(=O)Oc2ccc(Cl)cc2)cc1` (stereo not drawn), inactive: 92%.
Consider `CP(=O)(OC12CC3CC(CC(C3)C1)C2)OC12CC3CC(CC(C3)C1)C2`, for which the percent response vs DMSO is inactive: 101%.
Under `Nc1ccc2c(ccc3cccnc32)n1.O=[N+]([O-])c1cc([N+](=O)[O-])c(O)c([N+](=O)[O-])c1` stands inactive: 100%.
The result for `O=C(OCCCN1CCCC1)C(O)(c1ccccc1)C1CCCCC1` (stereo not drawn) reads inactive: 99.2%; that for `COc1ccccc1OP(C)(=O)Nc1c(C)n(C)n(-c2ccccc2)c1=O` (stereo not drawn), inactive: 96.6%; that for `CCc1ccc(OP(C)(=O)Nc2cccnc2)cc1` (stereo not drawn), inactive: 111%.
With `CP(=O)(Oc1ccccc1)N1CCOC1=O` (stereo not drawn), the percent response vs DMSO is inactive: 99.9%.
Under `COc1ccc(OP(C)(=O)Nc2ccc(Br)cc2)cc1` (stereo not drawn) stands inactive: 89.8%; under `CCN(CC)CC(O)COC(=O)C(O)(c1ccccc1)C1CCCCC1` (stereo not drawn), inactive: 99.1%.
Take `CN(C)C(=O)c1c([N+](=O)[O-])cc([N+](=O)[O-])cc1[N+](=O)[O-]`: the percent response vs DMSO is inactive: 92%.
Under `COc1ccccc1OP(C)(=O)Nc1ccccc1Br` (stereo not drawn) stands inactive: 99.5%; under `CC(C)(C)c1ccc(OP(C)(=O)O)cc1`, inactive: 97.8%; under `CP(=O)(Nc1ccc(Cl)cc1)Oc1ccc(F)cc1` (stereo not drawn), inactive: 105%.
The result for `CCOP(C)(=S)SCC(=O)NC(C)(CC)C(=O)O` (stereo not drawn) reads inactive: 103%.
For `CP(=O)(Nc1ccc(SC(F)(F)F)cc1)Oc1ccc(F)cc1` (stereo not drawn), the percent response vs DMSO was inactive: 103%.
The result for `CP(=O)(Nc1ccc2c(c1)OCCO2)Oc1ccccc1` (stereo not drawn) reads inactive: 92.7%; that for `CN(C)CCOC(=O)C(O)(c1ccccc1)C1CCCCC1` (stereo not drawn), inactive: 104%.
Under `COc1ccc(NP(C)(=O)Oc2ccccc2OC)cc1` (stereo not drawn) stands inactive: 100%.
The result for `COc1ccc(OP(C)(=O)Nc2cccc(Br)c2)cc1` (stereo not drawn) reads inactive: 96.1%; that for `O=[N+]([O-])c1ccc(OP2(=O)COCCO2)cc1` (stereo not drawn), inactive: 100%; that for `O=[N+]([O-])c1cc([N+](=O)[O-])c(NCC2CCS(=O)(=O)C2)c([N+](=O)[O-])c1` (stereo not drawn), inactive: 102%.
Regarding `CCOC(=O)c1ccc(NP(C)(=O)Oc2ccc(F)cc2)cc1` (stereo not drawn), the percent response vs DMSO is inactive: 104%.
Under `COc1ccc(OP(C)(=O)Nc2ccc(SC(F)(F)F)cc2)cc1` (stereo not drawn) stands inactive: 99%.
As to `CP(=O)(Nc1ccccc1)Oc1ccc(F)cc1` (stereo not drawn), the percent response vs DMSO was inactive: 100%.
Turning to `CCCCCOc1ccc(NP(C)(=O)Oc2ccc(Cl)cc2Cl)cc1` (stereo not drawn), the percent response vs DMSO was inactive: 95.7%.
As for `O=[N+]([O-])c1cc([N+](=O)[O-])c(OC2CCCCC2O)c([N+](=O)[O-])c1` (stereo not drawn), the percent response vs DMSO was inactive: 103%.
The result for `CCN(CC)CCCOC(=O)C(O)(c1ccccc1)C1CCCCC1` (stereo not drawn) reads inactive: 105%; that for `CP(=O)(Nc1ccccc1F)Oc1ccccc1` (stereo not drawn), inactive: 119%; that for `CC(C)c1ccc(OP(C)(=O)Nc2ccc(SC(F)(F)F)cc2)cc1` (stereo not drawn), inactive: 106%.
Consider `COc1ccc2c(c1O)-c1c(O)c(OC)cc3c1[C@H](C2)[N+](C)(C)CC3.O=[N+]([O-])c1cc([N+](=O)[O-])c([O-])c([N+](=O)[O-])c1[O-]`, for which the percent response vs DMSO is inactive: 104%.
Regarding `O=C(OC1CN2CCC1CC2)c1ccc([N+](=O)[O-])cc1` (stereo not drawn), the percent response vs DMSO was inactive: 97.8%.
Under `O=C(OCCN1CCN(CCOCc2ccccc2)CC1)C(O)(c1ccccc1)c1ccccc1` stands inactive: 101%.
As to `CCOC(=O)c1ccc(NP(C)(=O)Oc2cc(C)cc(C)c2)cc1` (stereo not drawn), the percent response vs DMSO is inactive: 102%.
Take `Cc1cc(C)cc(OP(C)(=O)Nc2ccc(C)cc2C)c1` (stereo not drawn): the percent response vs DMSO was inactive: 94.5%.
`COc1ccccc1OP(C)(=O)Nc1cccc(Br)c1` (stereo not drawn): the percent response vs DMSO is inactive: 99.1%.
The result for `Cc1ccc(C)c(NP(C)(=O)Oc2ccccc2)c1` (stereo not drawn) reads inactive: 96%; that for `Cc1cc(C)cc(OP(C)(=O)Nc2ccccn2)c1` (stereo not drawn), inactive: 94.3%.
Regarding `CP(=O)(Nc1cccc(Br)c1)Oc1ccccc1` (stereo not drawn), the percent response vs DMSO was inactive: 98.8%.
Regarding `O=C(O)c1cccc(Nc2c([N+](=O)[O-])cc([N+](=O)[O-])cc2[N+](=O)[O-])c1`, the percent response vs DMSO is inactive: 98.5%.
Under `CC1=NCCc2c1[nH]c1ccccc21.O=[N+]([O-])c1cc([N+](=O)[O-])c(O)c([N+](=O)[O-])c1` stands inactive: 90.1%; under `CCOC(=O)C(CC)C1=NC(C)(C)Cc2ccccc21.O=[N+]([O-])c1cc([N+](=O)[O-])c(O)c([N+](=O)[O-])c1` (stereo not drawn), inactive: 99.4%.
Under `CC1=C2N=C(C=C3N=C(C(C)=C4[N-][C@@](C)([C@@H]5N=C1[C@](C)(CCC(=O)NC[C@@H](C)OP(=O)([O-])O[C@H]1[C@@H](O)[C@@H](n6cnc7cc(C)c(C)cc76)O[C@@H]1CO)[C@H]5CC(N)=O)[C@@](C)(CC(N)=O)[C@@H]4CCC(N)=O)[C@@](C)(CC(N)=O)[C@@H]3CCC(N)=O)C(C)(C)[C@@H]2CCC(N)=O.[C-]#N.[Co+3]` stands inactive: 89.2%; under `O=[N+]([O-])c1cc([N+](=O)[O-])c(Nc2nnnn2CCO)c([N+](=O)[O-])c1`, inactive: 101%; under `CCCOc1ccc(NP(C)(=O)Oc2ccc(Cl)cc2)cc1` (stereo not drawn), inactive: 103%.
Under `CP(=O)(Nc1ccc(SC(F)(F)F)cc1)Oc1ccccc1` (stereo not drawn) stands inactive: 101%; under `COc1ccccc1OP(C)(=O)Nc1c(C)cccc1C` (stereo not drawn), inactive: 98%.
On to `CN1CCCCC1COC(=O)C1(O)c2ccccc2CCc2ccccc21` (stereo not drawn), for which the percent response vs DMSO was inactive: 101%.
`O=[N+]([O-])c1cc([N+](=O)[O-])c(-n2nnc3ccccc32)c([N+](=O)[O-])c1`: the percent response vs DMSO is inactive: 91.6%.
Under `Cc1nc2ccc3ccccc3c2s1.O=[N+]([O-])c1cc([N+](=O)[O-])c(O)c([N+](=O)[O-])c1` stands inactive: 96.6%; under `O=[N+]([O-])c1cc([N+](=O)[O-])c(-c2cnn(-c3ccccc3)c2)c([N+](=O)[O-])c1`, inactive: 95.3%.
With `Cc1cc(C)cc(OP(C)(=O)Nc2ccc(SC(F)(F)F)cc2)c1` (stereo not drawn), the percent response vs DMSO was inactive: 108%.
The result for `CP(=O)(NC(=O)Nc1ccccc1)Oc1ccccc1` (stereo not drawn) reads inactive: 94%; that for `CCc1ccc(OP(C)(=O)N2CCN(c3ccc([N+](=O)[O-])cc3)CC2)cc1` (stereo not drawn), inactive: 101%.
As to `CP(=O)(Oc1ccccc1)OC(c1ccccc1)C(F)(F)F` (stereo not drawn), the percent response vs DMSO is inactive: 97.7%.
Under `Cc1cccc(C)c1OP(C)(=O)Nc1ccc(SC(F)(F)F)cc1` (stereo not drawn) stands inactive: 97.1%.
Under `CP(=O)(Nc1ccc(SC(F)(F)F)cc1)Oc1ccc(Cl)cc1` (stereo not drawn) stands inactive: 96.4%.
Turning to `CP(=O)(Nc1ccccn1)Oc1ccc(Cl)cc1` (stereo not drawn), the percent response vs DMSO is inactive: 90.5%.
The result for `CCOC(=O)c1ccc(NP(C)(=O)Oc2ccc(OC)cc2)cc1` (stereo not drawn) reads inactive: 102%; that for `O=[N+]([O-])c1cc([N+](=O)[O-])c(O)c([N+](=O)[O-])c1.c1ccc(Oc2ccncc2)cc1`, inactive: 95.3%; that for `CCOP(C)(=S)SCC(=O)NC(C)C(=O)O` (stereo not drawn), inactive: 106%.
The result for `CP(=O)(Nc1ccccc1Br)Oc1ccccc1` (stereo not drawn) reads inactive: 98%; that for `COc1ccccc1OP(C)(=O)Nc1ccccc1` (stereo not drawn), inactive: 97.7%; that for `CP(=S)(Nn1cnnc1)Oc1ccccc1` (stereo not drawn), inactive: 98.8%.
Under `O=[N+]([O-])c1ccc2c(c1)C=Nc1ccccc1O2` stands inactive: 107%; under `Cc1cccc(C)c1OP(C)(N)=O` (stereo not drawn), inactive: 105%.
For `CC(C)(C)c1ccc(OP(C)(=O)Nc2ccc(SC(F)(F)F)cc2)cc1` (stereo not drawn), the percent response vs DMSO is inactive: 102%.
Under `O=[N+]([O-])c1cc([N+](=O)[O-])c(Nc2cccnc2)c([N+](=O)[O-])c1` stands inactive: 95%; under `Cc1cc(C)cc(OP(C)(N)=O)c1` (stereo not drawn), inactive: 104%.
Under `COc1ccc(OP(C)(=O)Nc2cccc(F)c2)cc1` (stereo not drawn) stands inactive: 99.7%.
The result for `COc1ccccc1OP(C)(=O)Nc1cc(Cl)ccc1C` (stereo not drawn) reads inactive: 102%; that for `Cc1ccc(NP(C)(=O)Oc2ccccc2)c(C)c1` (stereo not drawn), inactive: 93.8%; that for `COc1ccccc1OP(C)(=O)Nc1ccc(C)cc1` (stereo not drawn), inactive: 88.8%.
On to `CCOC(=O)c1ccc(NP(C)(=O)Oc2ccccc2)cc1` (stereo not drawn), for which the percent response vs DMSO is inactive: 102%.
As to `CCN(CC)CCCOC(=O)C(O)(c1ccccc1)c1ccccc1`, the percent response vs DMSO is inactive: 101%.
